In patent publication US11173162B2, “Bicyclic heterocycles as FGFR4 inhibitors” (Incyte Corporation, priority 2015, dated 2021) one finds FGFR1/FGFR3 data, which are given here for 1 compound.

The test system of this assay is FGFR3 enzyme. In words: FGFR Enzymatic Assay (FRET peptide phosphorylation), FGFR3. Format: biochemical. On the procedure:
The inhibitor potency of the exemplified compounds was measured in an enzyme assay that measures peptide phosphorylation using FRET measurements to detect product formation. Inhibitors were serially diluted in DMSO and a volume of 0.5 μL was transferred to the wells of a 384-well plate.
GraphPad prism3 was used to analyze the data.

Regarding `CCN1C(=O)N(c2c(F)c(OC)cc(OC)c2F)Cc2cnc(-c3ccc(C(=O)NC)nc3)cc21` [Example 24, 5-(3-(2,6-difluoro-3,5-dimethoxyphenyl)-1-ethyl-2-oxo-1,2,3,4-tetrahydropyrido[4,3-d]pyrimidin-7-yl)-N-methylpicolinamide], the FGFR1/FGFR3 was over 5.
